Molecular target: Somatostatin receptor type 3 (Homo sapiens, UniProt P32745)
Assay: Agonist activity at human SST3 expressed in CHO-K1 cells assessed as activation of […]-stimulated cAMP accumulation at 2 uM after 45 mins by TR-FRET assay
Format: functional, cell-based

Protein sequences, listed by entry. Tags and fused reporters are not part of them.
UniProt P32745, whole entry: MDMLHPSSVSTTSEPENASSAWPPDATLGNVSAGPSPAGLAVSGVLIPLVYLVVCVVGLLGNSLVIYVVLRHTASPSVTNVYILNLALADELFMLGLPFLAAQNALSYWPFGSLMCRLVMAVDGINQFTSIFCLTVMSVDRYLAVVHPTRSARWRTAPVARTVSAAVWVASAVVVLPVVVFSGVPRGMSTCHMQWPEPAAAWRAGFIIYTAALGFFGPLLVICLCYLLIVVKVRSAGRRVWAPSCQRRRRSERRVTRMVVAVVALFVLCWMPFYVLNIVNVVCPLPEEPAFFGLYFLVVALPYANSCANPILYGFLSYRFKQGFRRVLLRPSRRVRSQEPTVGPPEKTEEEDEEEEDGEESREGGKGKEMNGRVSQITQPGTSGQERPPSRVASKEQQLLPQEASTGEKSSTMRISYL

Q: For `CC(C)(C)CCN[C@H]1CCCC[C@H]1NC(=O)c1ccc(F)cc1`, which Activity is on record?
A: 98%
